Experimental data published in patent US7728155B2, “Dihydrobenzofuranyl alkanamines and methods for using same as cns agents” (Wyeth LLC, priority 2003, dated 2010).

Protein sequences, listed by entry. Tags and fused reporters are not part of them. Residues count along the entry.
UniProt P28335, 33-458: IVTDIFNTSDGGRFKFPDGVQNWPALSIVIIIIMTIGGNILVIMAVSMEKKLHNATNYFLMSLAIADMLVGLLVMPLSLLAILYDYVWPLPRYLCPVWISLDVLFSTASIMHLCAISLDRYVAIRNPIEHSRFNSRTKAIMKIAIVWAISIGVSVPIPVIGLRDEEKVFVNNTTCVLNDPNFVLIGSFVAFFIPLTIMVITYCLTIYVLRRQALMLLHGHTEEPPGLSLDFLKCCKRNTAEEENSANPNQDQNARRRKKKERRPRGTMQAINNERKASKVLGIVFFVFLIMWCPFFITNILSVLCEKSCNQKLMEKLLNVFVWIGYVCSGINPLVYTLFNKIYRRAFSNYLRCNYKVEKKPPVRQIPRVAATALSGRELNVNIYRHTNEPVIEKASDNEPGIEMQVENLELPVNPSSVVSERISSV

Columns and labels:
[1] = target: T1, human 5-hydroxytryptamine-2C (h5-HT2C) receptor (Homo sapiens, UniProt P28335); assay: [125I]DOI binding affinity at h5-HT2C receptor, CHO cell membranes; settings: reference compounds; [125I]DOI displacement, CHO membranes expressing h5-HT2C; read-out: Ki (95% confidence interval)
T1 construct: expressed in transfected cells; host or cells: CHO (Chinese Hamster Ovary) cells; membranes

human 5-HT2C receptor = human 5-HT2C receptor (Homo sapiens, UniProt P28335); assay: 5-HT2C receptor-stimulated calcium mobilization (FLIPR) in CHO cells; format: cell-based; settings: reference compounds, CHO cells expressing human 5-HT2C

For `Clc1cccc(N2CCNCC2)c1` [mCPP, meta-chlorophenylpiperazine, reference compound], the Ki [1] was 6.5 nM and the EC50 (human 5-HT2C receptor) was 5.4 nM.
